Earlier results in patent US20070092565A1, “Gastric retention drug delivery system” (PHARMASCIENCE INC., priority 2005, published 2007).

1-(aminomethyl) cyclohexane acetic acid [Gabapentin]
oral bioavailability (dose 900 mg/day given in 3 divided doses): 60% | oral bioavailability (dose 2400 mg/day given in 3 divided doses): 34%

Where two headings read alike, the source gives them in different places.
